## Antibody variant affinities, Ab-14 light chain, assay 1

Antigen: PDVDLGDISGINAS, a 14-residue peptide of the SARS-CoV-2 spike HR2 region.

Parent: Ab-14, a human scFv built as VH, a (GGGGS)3 linker, VL. Only the CDRs of the light chain vary.
VH: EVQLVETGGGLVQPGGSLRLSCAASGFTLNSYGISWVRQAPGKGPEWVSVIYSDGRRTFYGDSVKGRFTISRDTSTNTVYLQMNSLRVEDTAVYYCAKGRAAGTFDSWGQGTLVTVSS
VL: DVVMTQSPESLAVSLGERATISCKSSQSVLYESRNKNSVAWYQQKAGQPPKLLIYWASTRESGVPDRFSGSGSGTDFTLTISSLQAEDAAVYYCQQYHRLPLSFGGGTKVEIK

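Phage display of a naive human antibody library on the peptide gave the parent. The library (AAYL50) carries one to three amino acid substitutions per variant, with no insertions or deletions. The assay is AlphaSeq: two haploid yeast populations carry antibody and antigen on their surface. The frequency of each diploid, read from paired DNA barcodes, reflects how well the two displayed proteins bind. Scores were corrected for input abundance and mapped to Kd with protein pairs of known affinity run in the same pool. Each pool was mated in three replicate cultures.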

Each variant is given by its three light chain CDRs, as the data file delimits them; those of the parent are KSSQSVLYESRNKNSVA, WASTRES, QQYHRLPLS.
All variants listed here change L30 of the VL, counted from its first residue.
Each Kd is an estimate from the mating assay, the geometric mean of the replicates in which the pair was seen; lower is stronger.
Where no diploid with the target was found in any replicate, the entry reads "nd": below detection, most likely a poor binder, though not proof of it.
Three control strains display no target. For library AAYL50, 18% of the pairings with them gave a signal, with a median of 15 µM and one signal in twenty below 970 nM, so weak values seen in few replicates may be background. Also given: how often the same scFv was detected with the empty control strains.

For KASQSVSYESRNKNSVA / WASTRES / QQYHRLPLY, the assay gave 65 nM (3 of 3 replicates; controls 0 of 9).
For KSSQSVRYPSRCKNSVA / WASTRES / QQYHRLPLS, the assay gave 15 µM (1 of 3 replicates; controls 4 of 9).
For KSSQSVMYESRNKNSVA / LASTRES / AQYHRLPLS, the assay gave 450 nM (1 of 3 replicates; controls 1 of 9).
For KSSQSVDDESRNKQSVA / WASTRES / QQYHRLPLS, the assay gave 3.1 nM (3 of 3 replicates; controls 0 of 9).
For KSSQSVKYESRNKNSVA / WASTRES / QQYHRLPLT, the assay gave nd (0 of 3 replicates; controls 0 of 9).
For KSSQSVFYESRNKNSVA / WASTRES / QIYHRDPLS, the assay gave 330 nM (3 of 3 replicates; controls 3 of 9).
For KSSQSVQYESRNKNSVA / WASTRES / QQYHRLPAQ, the assay gave nd (0 of 3 replicates; controls 2 of 9).
For YSSQSVAYESRNKNSVA / WASTRES / QSYHRLPLS, the assay gave 26 µM (1 of 3 replicates; controls 6 of 9).
For KSSQSVSYESRNKNSVA / WASTREL / QQYHDLPLS, the assay gave 6.3 nM (3 of 3 replicates; controls 1 of 9).
For KNSQSVPYESRNKNSVG / WASTRES / QQYHRLPLS, the assay gave nd (0 of 3 replicates; controls 0 of 9).
For KSSQAVSYESRNKNSVA / WMSTRES / QQYHRLPLS, the assay gave 150 nM (3 of 3 replicates; controls 0 of 9).
For KSSQSVHYESRNKNSVA / WASTRES / QQYHRLPLS, the assay gave 24 nM (3 of 3 replicates; controls 1 of 9).
For KPSQSVMYESRNKWSVA / WASTRES / QQYHRLPLS, the assay gave 3.0 µM (3 of 3 replicates; controls 4 of 9).
For KSSQSVSYESRNKNSVA / WASDRES / QQYHRLPLS, the assay gave 150 nM (3 of 3 replicates; controls 0 of 9).
For KSSQSVEYESFNKNSVA / WASTMES / QQYHRLPLS, the assay gave nd (0 of 3 replicates; controls 0 of 9).
For KSSQCVQYESRNKNSRA / WASTRES / QQYHRLPLS, the assay gave nd (0 of 3 replicates; controls 0 of 9).
For KSSQSVDYESRNKNSVA / WASLMES / QQYHRLPLS, the assay gave nd (0 of 3 replicates; controls 1 of 9).
For KKSQSVQYESRNKNSLA / WASTRES / QQYHRLPLS, the assay gave nd (0 of 3 replicates; controls 3 of 9).
For KSSQSVNYESRNKNSVA / WASTMES / QQYHRLPKS, the assay gave 860 nM (3 of 3 replicates; controls 1 of 9).
For KSSQSVGYESRNKNSVA / WASTRES / QQYHRLPRS, the assay gave 3.5 nM (3 of 3 replicates; controls 2 of 9).
For KSSQSVYYESRNKNSVA / WASTRIS / LQYHRLPLS, the assay gave nd (0 of 3 replicates; controls 0 of 9).
For KSSQSYTMESRNKNSVA / WASTRES / QQYHRLPLS, the assay gave 7.3 nM (3 of 3 replicates; controls 3 of 9).
For KSSQSNSYESRNKNSVA / WTSTRES / QQYHRLPLS, the assay gave 14 nM (3 of 3 replicates; controls 1 of 9).
For KSSQSVFHESRNKNSVA / WASTDES / QQYHRLPLS, the assay gave nd (0 of 3 replicates; controls 1 of 9).
For KSSQSVPYESRNKNSVA / WAATRWS / QQYHRLPLS, the assay gave 120 nM (3 of 3 replicates; controls 0 of 9).
For KSSQSVNYESTNKNSVA / WASTRES / QQYHRLFLS, the assay gave 6.2 nM (3 of 3 replicates; controls 2 of 9).
For KSSQSVRYESRNKNSVA / WASTRES / QAYHRLPLS, the assay gave 290 nM (2 of 3 replicates; controls 0 of 9).
For KSSQSVWYENRNKNSVA / VASTRES / QQYHRLPLS, the assay gave 62 µM (3 of 3 replicates; controls 5 of 9).
For KSSQSVQYEDRNKNSVA / WARTRES / QQYHRLPLS, the assay gave 18 nM (3 of 3 replicates; controls 1 of 9).
For KSSQSVKYESRNKNSVA / WASTREG / QRYHRLPLS, the assay gave 3.5 µM (1 of 3 replicates; controls 2 of 9).
For KSSQSVQYGSRNKNSVA / WASTRES / QQYHRLPLS, the assay gave 14 nM (3 of 3 replicates; controls 5 of 9).
For KSSQSVAYGGRNKNSVA / WASTRES / QQYHRLPLS, the assay gave 29 nM (3 of 3 replicates; controls 3 of 9).
For WSSQSVWYESRNKNSVA / WASTRES / QQYHRLSLS, the assay gave nd (0 of 3 replicates; controls 0 of 9).
For KSSQSVPYESMNKNSVA / WASTRES / QQYHRLPLS, the assay gave 5.3 nM (3 of 3 replicates; controls 4 of 9).
For KSSQSVSYEWRNKNSVA / WASTRES / QQYHRLPNS, the assay gave 11 nM (3 of 3 replicates; controls 3 of 9).
For KSSQSNDYESRNKNSVA / WASTRES / QQYGRLPLS, the assay gave 4.0 nM (3 of 3 replicates; controls 2 of 9).

Repeated from above, the 2 best binders with a signal in all replicates:

The variant KSSQSVDDESRNKQSVA / WASTRES / QQYHRLPLS showed 3.1 nM (3 of 3 replicates; controls 0 of 9).
The variant KSSQSVGYESRNKNSVA / WASTRES / QQYHRLPRS showed 3.5 nM (3 of 3 replicates; controls 2 of 9).

The measurements come from Engelhart et al. 2022 (doi:10.1038/s41597-022-01779-4) through the FLAb antibody collection.